Experimental data published in patent US12268704B2, “Hippo regulation of cardiac vascularity, fibrosis, and inflammation” (Baylor College of Medicine, priority 2018, dated 2025).

The chains behind the UniProt entries cited, without tags or fusion partners. Where a name states a change or a piece, a line headed by the entry shows the natural chain unless it says otherwise.
UniProt P28843: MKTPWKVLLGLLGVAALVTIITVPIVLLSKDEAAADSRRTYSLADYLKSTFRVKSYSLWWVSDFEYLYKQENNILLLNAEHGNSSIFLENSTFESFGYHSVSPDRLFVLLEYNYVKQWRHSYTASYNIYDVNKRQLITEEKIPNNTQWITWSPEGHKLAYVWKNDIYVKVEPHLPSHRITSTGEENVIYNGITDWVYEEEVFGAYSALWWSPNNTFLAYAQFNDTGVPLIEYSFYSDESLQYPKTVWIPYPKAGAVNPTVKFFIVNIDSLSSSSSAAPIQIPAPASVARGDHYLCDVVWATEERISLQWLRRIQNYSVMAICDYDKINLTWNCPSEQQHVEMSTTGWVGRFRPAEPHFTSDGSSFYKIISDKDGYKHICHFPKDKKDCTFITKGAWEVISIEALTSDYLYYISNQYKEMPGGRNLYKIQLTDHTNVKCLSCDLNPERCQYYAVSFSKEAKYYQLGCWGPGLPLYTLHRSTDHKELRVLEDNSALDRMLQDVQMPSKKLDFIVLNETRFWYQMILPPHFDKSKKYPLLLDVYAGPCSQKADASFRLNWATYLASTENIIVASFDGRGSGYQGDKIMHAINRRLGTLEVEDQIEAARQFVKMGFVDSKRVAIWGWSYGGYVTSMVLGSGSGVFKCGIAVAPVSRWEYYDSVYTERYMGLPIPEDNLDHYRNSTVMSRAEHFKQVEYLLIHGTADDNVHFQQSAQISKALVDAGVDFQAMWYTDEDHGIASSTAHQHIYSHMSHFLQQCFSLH

Target: Dpp4 (Mus musculus, UniProt P28843)

Structure (SMILES): N[C@@H](CC(=O)N1CCn2c(nnc2C(F)(F)F)C1)Cc1cc(F)c(F)cc1F [Sitagliptin, Sitagliptin phosphate]
- junction density (Lats1/2 CKO E14.5 hearts treated with Sitagliptin versus controls, Pecam-1 IF): reduced
- blood islands, dorsal side of heart (Lats1/2 CKO E14.5 hearts treated with Sitagliptin, Pecam-1): lacked blood islands
- disorganized coronary vessel phenotype (Pecam IF and automated quantification) (Lats1/2 CKO E14.5 hearts, 0.01 mg/g by gavage to plugged female at E11.5, E12.5 and E13.5, compared with untreated Lats1/2 CKO): partially suppressed
